Ab-14 light chain CDR variants: yeast mating affinities

From the AlphaSeq antibody data of Li et al. 2023 (doi:10.1038/s41467-023-39022-2), copy in the FLAb collection.

All variants were tested on one target, the spike HR2 peptide PDVDLGDISGINAS (SARS-CoV-2).

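The parent was found by panning a naive human phage display library on the peptide. This is the validation round: designs drawn from the data on random variants, tested in the same kind of assay. Their group label is 14L_En_HC (En: ensemble of fine-tuned language models; HC: hill climbing; a sequence that several methods proposed may carry one label only). The scFvs were displayed on barcoded MATa yeast, the peptide on MATalpha yeast. Mating (16 h, 30 °C) was followed by selection of diploids and sequencing of their barcodes. The ratio of observed to expected reads was calibrated, replicate by replicate, on BCL2-family standards whose Kd was known from biolayer interferometry. Each pool was mated in six replicate cultures.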

Each scFv is VH, a (GGGGS)3 linker, VL, as in the parent Ab-14, and differs from it in the CDRs of the light chain only.
VH: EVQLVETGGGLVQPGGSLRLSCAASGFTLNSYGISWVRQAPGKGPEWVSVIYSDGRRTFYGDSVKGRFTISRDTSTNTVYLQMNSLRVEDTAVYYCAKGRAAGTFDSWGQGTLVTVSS
VL: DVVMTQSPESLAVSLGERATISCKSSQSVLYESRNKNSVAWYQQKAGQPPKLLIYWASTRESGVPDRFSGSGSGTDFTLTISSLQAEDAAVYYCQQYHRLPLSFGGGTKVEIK

Each variant is given by its three light chain CDRs, as the data file delimits them; those of the parent are KSSQSVLYESRNKNSVA, WASTRES, QQYHRLPLS.
Scale: log10 of Kd in nM, estimated from mating counts; low values are strong binders.
An entry "nd" has no value in the source: the pair was not observed among the diploids in that replicate. This suggests poor binding but is not conclusive.

With TLSMSWGMESHHKNNVA, QESTREK, QQYFRLPIS the result was 3.09, 2.79, nd, nd, 1.35, 1.69 (controls 1 of 18).
With TISQMFLGESRIRNSVA, QASTRES, QSYDRLPLS the result was 0.42, 0.09, 0.22, 0.07, -0.10, 0.20 (controls 0 of 18).
With ILSQSVLMGMHIKNSVA, QATMRFN, QQYHRLPLM the result was nd, 1.24, 1.82, nd, 1.16, nd (controls 0 of 18).
With NLYQSMNFLGRVMNSIA, DASTLPD, QQYHRLPLS the result was 0.94, 0.03, 0.15, 0.01, 0.15, 0.29 (controls 0 of 18).
With MLSDLVKMGSRNTDSVA, DNSTRGS, QQYDRLPLS the result was 1.11, 0.72, 1.99, 1.45, 1.17, 0.96 (controls 3 of 18).
With QLLMATMQEGYNRNSVA, HAETRED, QSYHRLPLS the result was 1.35, 1.17, 0.77, 1.40, 0.97, 1.05 (controls 1 of 18).
With TLGDVTMQLSRNKNSVA, DASTSED, QQYDRLPLS the result was 0.31, 0.32, 0.74, 0.19, 0.77, 0.71 (controls 0 of 18).
With KLYQMTGIESHAKNSLA, DANRRAD, QQYHRLPLS the result was -0.09, -0.13, 0.06, -0.32, -0.28, -0.18 (controls 3 of 18).
With HVSEMIFAQMKQRNSVA, ENSTREA, QQYDRLPLS the result was 0.46, 0.06, 0.07, 0.08, 0.21, 1.01 (controls 0 of 18).
With MFSQLFYTGSRTKNAVA, QASTREN, QQYHRLPLS the result was 2.18, 1.79, 1.03, 1.60, 0.99, 1.33 (controls 0 of 18).
With ILSQSVLMGMHTKNSVA, QATMRFN, QQYDRLPLM the result was 0.91, 0.30, 0.45, 0.56, 0.78, 0.61 (controls 1 of 18).
With MAYGGDMMESVTRNSVA, NAETRAD, QDYHRLPLS the result was 0.02, 0.27, -0.09, -0.03, -0.03, 0.48 (controls 0 of 18).
With KLLQSVNYGSRALNSVA, QMETRED, QQYNRLPLS the result was 1.75, nd, nd, 1.70, 1.75, 1.32 (controls 0 of 18).
With MLAESAHMESRNKNSVA, DNSTRES, QHYDRLPLS the result was nd, 2.05, nd, nd, nd, nd (controls 0 of 18).
With MISQLFMYGSRNYNSIA, QAQTREK, QQYDRLPLI the result was 1.21, 1.63, 1.71, 1.34, 1.35, 1.41 (controls 0 of 18).
With KISYMGEYFSTNHSAIA, QASTRVQ, QQYHRLPIS the result was 1.20, 1.33, 0.70, 1.13, 0.81, 0.93 (controls 0 of 18).
With TLSQNMDMLSRNVNSVA, DLTTRGN, QQYHRLPLS the result was 0.11, 0.08, -0.24, 0.07, -0.27, -0.14 (controls 1 of 18).
With KLYASTMLETHDKNSIA, DLSTRGN, QQYHRLPLS the result was 0.94, 0.80, 0.69, 0.34, 0.44, 0.65 (controls 0 of 18).
With KISQMYRYEQQNSSSIA, EANTRLN, QSYHRLPLS the result was nd, 2.56, 2.39, nd, 2.13, 2.73 (controls 0 of 18).
With TLTQVGGYEMNAHNSIA, DLRTRES, QQYHRLPLS the result was 0.44, 0.79, 0.12, 0.17, 0.58, 0.46 (controls 1 of 18).
With KLSQSVRMEEFVKDNVA, ENSTREA, QDYHRLPLS the result was nd, nd, nd, nd, nd, nd (controls 0 of 18).
With IISQVDGYLSRNTNSIA, DQSTRGS, QQYDRLPLS the result was 0.25, 0.16, 0.06, 0.06, 0.00, 0.36 (controls 3 of 18).
With HISMMVGTKGYNKNSVA, NAETREN, QQYHRLPLS the result was 1.77, 1.53, 1.67, 2.13, 1.80, 1.69 (controls 1 of 18).
With KLSQSVNLTGKNKNSVA, ELSFREK, QQYERLPLS the result was 2.10, 1.30, 1.35, 1.00, 1.67, 1.66 (controls 1 of 18).
With TISQSAQQESHTKNSVA, DLSVRGS, QQYHRLPLS the result was 0.01, 0.71, 0.79, 0.79, 0.70, 0.90 (controls 1 of 18).
With KLRMSTAYLSEIKNSVA, ELTTRGN, QQYFRLPLS the result was 1.30, 1.05, 0.81, 0.75, 0.76, 1.29 (controls 1 of 18).
With KLSQSTHIESFNRNNVA, EMTTRES, QSYDRLPLS the result was 0.77, 1.79, 0.82, 0.71, 0.53, 0.75 (controls 0 of 18).
With TISNMWFLESKNKNNVA, EESTRED, QSYFRLPLS the result was 0.48, 0.20, 0.24, 0.12, 0.29, 0.07 (controls 0 of 18).
With KLSMSYRYESMNKNSIA, ELVTRMS, QQYHRLPLS the result was 1.22, 0.77, 1.45, 1.36, 1.14, 0.57 (controls 0 of 18).
With TISHSMRYESSLKNAIA, NAQTRES, QQYHRLPIS the result was -0.13, 0.15, 0.03, -0.11, 0.28, 0.06 (controls 1 of 18).
With MVSDLVKMGVRNHNSVA, DNSTRGS, QQYDRLPLS the result was 2.77, 2.03, 1.12, 3.21, 2.13, 1.76 (controls 0 of 18).
With TLSDVMHMESRNVNNVA, DLVKRES, QQYHRLPLS the result was 0.09, 0.50, 0.43, -0.10, 0.41, 0.71 (controls 2 of 18).
With TISQMWFLESKNKNNVA, EESTRMD, QSYFRLPLS the result was 0.44, 0.30, 0.23, 0.30, 0.28, 0.38 (controls 0 of 18).
With HISYSMAHLSRNKNNVA, NQQTRES, QQYHRLPLS the result was 0.75, 0.61, 0.14, 0.23, 0.38, 0.62 (controls 1 of 18).
With TISQLMMYESRNKNNVA, GTSTRES, QCYHRLPLS the result was 1.01, 0.49, 0.48, 0.59, 0.34, 0.75 (controls 2 of 18).
With HLSQSVDLESMHKNSIA, DLMTRES, QQYHRLPLS the result was 0.43, 0.43, 0.42, 0.30, 0.07, 0.84 (controls 1 of 18).
With HLSQSVDMESVHKNSIA, DLMTRES, QQYHRLPLS the result was 0.17, 0.01, 0.13, -0.16, 0.04, 0.21 (controls 1 of 18).
With TISQSMLYLSNLKNSVA, QAETREQ, QQYHRLPIS the result was nd, 1.68, 2.10, 2.08, 1.06, 1.65 (controls 0 of 18).
With KLSQYVGGESRNKSSLA, DNNTRCD, QQYERLPLS the result was 1.67, 1.53, 2.12, 1.11, 1.20, 1.58 (controls 0 of 18).
With IISGSMLVESRNKNSVA, NAELREY, QHYDRLPLS the result was 0.98, 0.96, 1.03, 0.82, 1.04, 0.92 (controls 3 of 18).
With TISTSAMYESTNKNSVA, ELSTRGS, QQYERLPLS the result was nd, 2.13, 1.43, nd, nd, 1.90 (controls 0 of 18).
With KLGGMTAIESRNLNSVA, QMDTRES, QQYDRLPLS the result was 0.93, 0.95, 0.94, 0.92, 0.83, 0.89 (controls 2 of 18).
With TLSDLMHMESRNVNSVA, DLVKRES, QQYHRLPLS the result was 0.22, -0.02, -0.10, -0.07, -0.01, -0.04 (controls 2 of 18).
With KISGQYRFESLSKNSIA, EAQTRLK, QQYHRLPLS the result was 0.31, 0.26, 0.21, 0.09, 0.13, 0.46 (controls 4 of 18).
With KLYVSTMLESHNKDSIA, DLSTRGN, QQYHRLPLS the result was 0.87, 0.55, 0.57, 1.38, 0.60, 0.98 (controls 1 of 18).
With MISGSVMSESRLRNSVA, QTTTRES, QQYDRLPLS the result was 0.38, 0.63, 0.27, 0.33, 0.35, 0.49 (controls 2 of 18).

Top 6 of the variants detected in all replicates, tightest first:

CDR-L1,CDR-L2,CDR-L3,"log10 Kd, replicates",control signals
KLYQMTGIESHAKNSLA,DANRRAD,QQYHRLPLS,"-0.09, -0.13, 0.06, -0.32, -0.28, -0.18",3 of 18
TLSQNMDMLSRNVNSVA,DLTTRGN,QQYHRLPLS,"0.11, 0.08, -0.24, 0.07, -0.27, -0.14",1 of 18
TLSDLMHMESRNVNSVA,DLVKRES,QQYHRLPLS,"0.22, -0.02, -0.10, -0.07, -0.01, -0.04",2 of 18
TISHSMRYESSLKNAIA,NAQTRES,QQYHRLPIS,"-0.13, 0.15, 0.03, -0.11, 0.28, 0.06",1 of 18
HLSQSVDMESVHKNSIA,DLMTRES,QQYHRLPLS,"0.17, 0.01, 0.13, -0.16, 0.04, 0.21",1 of 18
MAYGGDMMESVTRNSVA,NAETRAD,QDYHRLPLS,"0.02, 0.27, -0.09, -0.03, -0.03, 0.48",0 of 18

Three control strains display no target. For all light chain designs, 4% of the pairings with them gave a signal, with a median of 2.64 and one signal in twenty below 1.59, so weak values seen in few replicates may be background. For each scFv, signals with the empty controls are counted beside the result.
The range of this assay differs from that of the first round, and the authors advise against merging the two.
Of ten entries with the parent sequence, four were seen in most replicates (averages 0.34 to 2.37), three in one and three in none, so single entries are noisy.
The authors averaged sequences with at least three values out of six and counted those with two or fewer as poor binders.